Laboratory results from patent publication US10442848B2, “Oxyntomodulin derivatives and pharmaceutical composition for treating obesity comprising the same” (HANMI SCIENCE CO., LTD, priority 2011, dated 2019).

Amino acid sequences for entries named in this document (tags omitted). Residues count along the entry.
UniProt P47871, 26-477: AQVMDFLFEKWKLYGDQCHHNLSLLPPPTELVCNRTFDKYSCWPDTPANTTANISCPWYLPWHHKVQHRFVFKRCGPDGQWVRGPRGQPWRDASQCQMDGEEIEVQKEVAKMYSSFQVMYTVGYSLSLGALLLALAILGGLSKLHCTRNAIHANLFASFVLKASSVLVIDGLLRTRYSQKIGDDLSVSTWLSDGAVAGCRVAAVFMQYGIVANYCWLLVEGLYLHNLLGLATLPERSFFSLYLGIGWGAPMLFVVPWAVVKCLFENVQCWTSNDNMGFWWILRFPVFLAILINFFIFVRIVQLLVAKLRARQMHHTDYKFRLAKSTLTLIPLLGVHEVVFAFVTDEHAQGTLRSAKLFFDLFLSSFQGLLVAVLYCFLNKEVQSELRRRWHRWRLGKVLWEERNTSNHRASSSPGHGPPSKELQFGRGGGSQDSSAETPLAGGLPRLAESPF
UniProt P43220, 24-463: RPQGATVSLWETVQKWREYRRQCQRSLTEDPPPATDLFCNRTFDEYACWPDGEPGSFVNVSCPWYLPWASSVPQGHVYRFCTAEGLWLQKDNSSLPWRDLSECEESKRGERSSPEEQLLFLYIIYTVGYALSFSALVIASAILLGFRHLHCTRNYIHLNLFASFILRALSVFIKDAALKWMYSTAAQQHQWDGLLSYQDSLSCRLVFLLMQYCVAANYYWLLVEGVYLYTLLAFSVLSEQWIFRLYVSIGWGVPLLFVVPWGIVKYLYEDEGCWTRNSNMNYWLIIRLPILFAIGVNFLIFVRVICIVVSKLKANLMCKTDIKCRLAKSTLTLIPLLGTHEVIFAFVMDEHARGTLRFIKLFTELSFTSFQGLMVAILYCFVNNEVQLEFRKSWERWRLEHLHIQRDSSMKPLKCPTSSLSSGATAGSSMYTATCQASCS

Legend:
[1] = system: ob/ob mouse; test: Changes in food intake in ob/ob mouse; format: in vivo; conditions: ob/ob mice fasted for 16 hours, food intake for 2 hours; 1 mg/kg derivative vs 10 mg/kg oxyntomodulin (FIG. 1)
Method: In order to measure in vivo therapeutic activity of oxyntomodulin derivatives, changes in food intake by administration of oxyntomodulin derivatives were examined in ob/ob mouse using native oxyntomodulin as a control.
Specifically, obese diabetic ob/ob mice, commonly used to test the efficacies of therapeutic agents for obesity and diabetes, were fasted for 16 hours, and administered with 1 or 10 mg/kg of oxyntomodulin, or 0.02, 0.1, 1 or 10 mg/kg of the oxyntomodulin derivative of SEQ ID NO. 2. Then, food intake was examined for 2 hours (FIG. 1). FIG. 1 is a graph showing changes in food intake according to administration dose of oxyntomodulin or oxyntomodulin derivative.

[2] = target: T1, human glucagon receptor (Homo sapiens, UniProt P47871); test: cAMP response in CHO cell line expressing human glucagon receptor; format: cell-based
T1 construct: expressed in transfected cells; host or cells: CHO DG44
Method: The PCR product was cloned into the known animal cell expression vector x0GC/dhfr to prepare a recombinant vector x0GC/GCGR.
CHO DG44 cell line cultured in DMEM/F12 (10% FBS) medium was transfected with the recombinant vector x0GC/GCGR using LIPOFECTAMINE®, and cultured in a selection medium containing 1 mg/mL G418 and 10 nM methotraxate.
The cultured cells were washed with KRB buffer and suspended in 40 ml of KRB buffer containing 1 mM IBMX, and left at room temperature for 5 minutes. […] Then, 20 mL of cell lysis buffer was added for cell lysis, and the cell lysates were applied to a cAMP assay kit (Molecular Device, USA) to measure cAMP concentrations. EC50 values were calculated therefrom, and compared to each other.

[3] = target: T2, human GLP-1 receptor (Homo sapiens, UniProt P43220); test: cAMP response in CHO cell line expressing human GLP-1 receptor; format: cell-based
T2 construct: PCR was performed using a region corresponding to ORF (Open Reading Frame) in cDNA; expressed in transfected cells; host or cells: CHO DG44

Compound | inhibitory effects on food intake [1] | EC50 [2] | EC50 [3]
CC[C@H](C)[C@H](NC(=O)[C@H](CC(N)=O)NC(=O)[C@H](CC(N)=O)NC(=O)[C@H](CCCNC(=N)N)NC(=O)[C@H](CC(N)=O)NC(=O)[C@H](CCCNC(=N)N)NC(=O)[C@H](CCCCN)NC(=O)[C@@H](NC(=O)[C@H](CC(N)=O)NC(=O)[C@H](CCSC)NC(=O)[C@H](CC(C)C)NC(=O)[C@H](Cc1c[nH]c2ccccc12)NC(=O)[C@H](CCC(=O)O)NC(=O)[C@@H](NC(=O)[C@H](Cc1ccccc1)NC(=O)[C@H](CC(C)C)NC(=O)[C@H](CCCNC(=N)N)NC(=O)[C@@H](NC(=O)[C@H](C)NC(=O)[C@H](CCC(=O)O)NC(=O)[C@H](CCC(=O)O)NC(=O)[C@H](CC(=O)O)NC(=O)[C@H](CC(C)C)NC(=O)[C@H](Cc1ccc(O)cc1)NC(=O)[C@H](CCCCN)NC(=O)[C@H](CO)NC(=O)[C@H](Cc1ccc(O)cc1)NC(=O)[C@H](CC(=O)O)NC(=O)[C@H](CO)NC(=O)[C@@H](NC(=O)[C@H](Cc1ccccc1)NC(=O)[C@@H](NC(=O)CNC(=O)[C@H](CCC(N)=O)NC(=O)[C@H](CO)NC(=O)Cc1c[nH]cn1)[C@@H](C)O)[C@@H](C)O)C(C)C)[C@@H](C)CC)[C@@H](C)O)C(=O)N[C@@H](C)C(=O)O [SEQ ID NO. 2] | more excellent inhibitory effects on food intake than administration of 10 mg/kg of oxyntomodulin | – | –
CC[C@H](C)[C@H](NC(=O)[C@H](Cc1ccccc1)NC(=O)[C@H](CC(C)C)NC(=O)[C@H](CCCNC(=N)N)NC(=O)[C@@H](NC(=O)[C@H](C)NC(=O)[C@H](CCC(=O)O)NC(=O)[C@H](CCC(=O)O)NC(=O)[C@H](CC(=O)O)NC(=O)[C@H](CC(C)C)NC(=O)[C@H](Cc1ccc(O)cc1)NC(=O)[C@H](CCCNC(=N)N)NC(=O)[C@H](CO)NC(=O)[C@H](Cc1ccc(O)cc1)NC(=O)[C@H](CC(=O)O)NC(=O)[C@H](CO)NC(=O)[C@@H](NC(=O)[C@H](Cc1ccccc1)NC(=O)[C@@H](NC(=O)CNC(=O)[C@H](CCC(N)=O)NC(=O)[C@H](CO)NC(=O)Cc1c[nH]cn1)[C@@H](C)O)[C@@H](C)O)C(C)C)C(=O)N[C@@H](CCC(=O)O)C(=O)N[C@@H](Cc1c[nH]c2ccccc12)C(=O)N[C@H](C(=O)N[C@@H](CCCNC(=N)N)C(=O)N[C@@H](CC(N)=O)C(=O)NCC(=O)NCC(=O)N1CCC[C@H]1C(=O)N[C@@H](CO)C(=O)N[C@@H](CO)C(=O)NCC(=O)N[C@@H](C)C(=O)N1CCC[C@H]1C(=O)N1CCC[C@H]1C(=O)N1CCC[C@H]1C(=O)N[C@@H](CO)C(=O)N[C@@H](CCCCN)C(=O)O)[C@@H](C)CC [SEQ ID NO. 18] | – | > 1 µM | –
CC[C@H](C)[C@H](NC(=O)[C@H](Cc1ccccc1)NC(=O)[C@H](CC(C)C)NC(=O)[C@H](CCCNC(=N)N)NC(=O)[C@@H](NC(=O)[C@H](C)NC(=O)[C@H](CCC(=O)O)NC(=O)[C@H](CCC(=O)O)NC(=O)[C@H](CCC(=O)O)NC(=O)[C@H](CC(C)C)NC(=O)[C@H](Cc1ccc(O)cc1)NC(=O)[C@H](CCCNC(=N)N)NC(=O)[C@H](CO)NC(=O)[C@H](Cc1ccc(O)cc1)NC(=O)[C@H](CC(=O)O)NC(=O)[C@H](CO)NC(=O)[C@@H](NC(=O)[C@H](Cc1ccccc1)NC(=O)[C@@H](NC(=O)CNC(=O)[C@H](CCC(N)=O)NC(=O)CNC(=O)Cc1c[nH]cn1)[C@@H](C)O)[C@@H](C)O)C(C)C)C(=O)N[C@@H](CCC(=O)O)C(=O)N[C@@H](Cc1c[nH]c2ccccc12)C(=O)N[C@@H](CC(C)C)C(=O)N[C@@H](CCCCN)C(=O)N[C@@H](CC(N)=O)C(=O)NCC(=O)NCC(=O)N1CCC[C@H]1C(=O)N[C@@H](CO)C(=O)N[C@@H](CO)C(=O)NCC(=O)N[C@@H](C)C(=O)N1CCC[C@H]1C(=O)N1CCC[C@H]1C(=O)N1CCC[C@H]1C(=O)N[C@@H](CO)C(=O)O [SEQ ID NO. 4] | – | > 1 µM | 0.0055 µM
CC[C@H](C)[C@H](NC(=O)[C@H](Cc1ccccc1)NC(=O)[C@H](CC(C)C)NC(=O)[C@H](CCCNC(=N)N)NC(=O)[C@@H](NC(=O)[C@H](C)NC(=O)[C@H](CCC(=O)O)NC(=O)[C@H](CCC(=O)O)NC(=O)[C@H](CCC(=O)O)NC(=O)[C@H](CC(C)C)NC(=O)[C@H](CCC(N)=O)NC(=O)[C@H](CCCNC(=N)N)NC(=O)[C@H](CO)NC(=O)[C@H](CC(C)C)NC(=O)[C@H](CC(=O)O)NC(=O)[C@H](CO)NC(=O)[C@@H](NC(=O)[C@H](Cc1ccccc1)NC(=O)[C@@H](NC(=O)CNC(=O)[C@H](CCC(N)=O)NC(=O)[C@H](CO)NC(=O)Cc1c[nH]cn1)[C@@H](C)O)[C@@H](C)O)C(C)C)C(=O)N[C@@H](CCC(=O)O)C(=O)N[C@@H](Cc1c[nH]c2ccccc12)C(=O)N[C@@H](CC(C)C)C(=O)N[C@@H](CCSC)C(=O)N[C@@H](CC(N)=O)C(=O)N[C@@H](CCCCN)C(=O)O [SEQ ID NO. 8] | – | > 1 µM | –
CC[C@H](C)[C@H](NC(=O)[C@H](Cc1ccccc1)NC(=O)[C@H](CC(C)C)NC(=O)[C@H](CCCNC(=N)N)NC(=O)[C@@H](NC(=O)[C@H](C)NC(=O)[C@H](CCC(=O)O)NC(=O)[C@H](CCC(=O)O)NC(=O)[C@H](CCC(=O)O)NC(=O)[C@H](CCSC)NC(=O)[C@H](CCC(N)=O)NC(=O)[C@H](CCCNC(=N)N)NC(=O)[C@H](CO)NC(=O)[C@H](CC(C)C)NC(=O)[C@H](CC(=O)O)NC(=O)[C@H](CO)NC(=O)[C@@H](NC(=O)[C@H](Cc1ccccc1)NC(=O)[C@@H](NC(=O)CNC(=O)[C@H](CCC(=O)O)NC(=O)CNC(=O)Cc1c[nH]cn1)[C@@H](C)O)[C@@H](C)O)C(C)C)C(=O)N[C@@H](CCC(=O)O)C(=O)N[C@@H](Cc1c[nH]c2ccccc12)C(=O)N[C@@H](C)C(=O)N[C@@H](C)C(=O)N[C@@H](Cc1c[nH]cn1)C(=O)N[C@@H](CO)C(=O)N[C@@H](CCC(N)=O)C(=O)NCC(=O)N[C@H](C(=O)N[C@@H](Cc1ccccc1)C(=O)N[C@H](C(=O)N[C@@H](CO)C(=O)N[C@@H](CC(=O)O)C(=O)N[C@@H](Cc1ccc(O)cc1)C(=O)N[C@@H](CO)C(=O)N[C@@H](CCCCN)C(=O)N[C@@H](Cc1ccc(O)cc1)C(=O)N[C@@H](CC(C)C)C(=O)N[C@@H](CC(=O)O)C(=O)O)[C@@H](C)O)[C@@H](C)O [SEQ ID NO. 6] | – | > 1 µM | –
